For three molecules, Kd results are on record in US20100003195A1 (published 2010).

Chains of the proteins cited; added tags and fusions are not shown. Residues count along the entry.
UniProt P35968, 20-764, stated change not applied: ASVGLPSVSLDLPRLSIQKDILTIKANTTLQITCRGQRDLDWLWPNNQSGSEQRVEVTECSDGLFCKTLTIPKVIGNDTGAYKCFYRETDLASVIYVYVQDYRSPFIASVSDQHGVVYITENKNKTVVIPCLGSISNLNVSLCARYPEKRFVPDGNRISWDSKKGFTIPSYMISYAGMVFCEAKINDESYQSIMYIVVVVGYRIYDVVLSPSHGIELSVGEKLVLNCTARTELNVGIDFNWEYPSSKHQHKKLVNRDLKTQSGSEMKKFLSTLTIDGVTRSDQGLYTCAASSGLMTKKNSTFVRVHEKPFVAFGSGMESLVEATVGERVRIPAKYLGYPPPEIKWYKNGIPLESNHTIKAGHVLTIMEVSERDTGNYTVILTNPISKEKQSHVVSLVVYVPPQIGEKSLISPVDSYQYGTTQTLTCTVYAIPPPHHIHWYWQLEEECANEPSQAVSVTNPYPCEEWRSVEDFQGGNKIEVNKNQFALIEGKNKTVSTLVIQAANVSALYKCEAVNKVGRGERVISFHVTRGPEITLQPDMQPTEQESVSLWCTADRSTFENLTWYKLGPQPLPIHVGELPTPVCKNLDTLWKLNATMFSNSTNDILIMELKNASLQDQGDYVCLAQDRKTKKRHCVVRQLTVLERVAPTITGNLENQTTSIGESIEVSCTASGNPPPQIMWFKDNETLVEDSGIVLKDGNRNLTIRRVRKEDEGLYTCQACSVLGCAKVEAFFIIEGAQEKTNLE

The target in assay [1] is T1, human KDR-Fc chimeric fusion (R&D Systems #357-KD-05) (human, UniProt P35968 20-764).
T1 construct: bought; also called KDR Fc fusion
Description: said to be measured by FP against the KDRFc construct (Table 8 has 0.05 µM under BiaKD).

Assay [2] concerns the target T1, human KDR-Fc chimeric fusion (R&D …). Description: fluorescence anisotropy, fluorescein-peptide + KDR-Fc. On the technique in general: Fluorescence polarisation rises when a labelled molecule tumbles more slowly, as on binding a larger partner.

B1: SEQ ID NO:310 (peptide)
peptide: AQDWYYDEILSMADQLRHAFLSGGGK
modifications: N-acetyl; C-terminal amide; fluorescein on C-terminal Lys in FP only
As usually defined, the Kd is the equilibrium constant for the complex coming apart. B1 displayed a Kd in assay [1] of 51 nM.

B2: SEQ ID NO:264 (peptide)
peptide: AGPKWCEEDWYYCMITGTGGGK
modifications: N-acetyl; C-terminal amide; fluorescein on C-terminal Lys in FP only
As to B2, the Kd in assay [2] came to 280 nM.

B3: SEQ ID NO:294 (peptide)
peptide: GDSRVCWEDSWGGEVCFRYDPGGGK
modifications: N-acetyl; C-terminal amide; fluorescein on C-terminal Lys in FP only
With B3, in assay [2], the Kd was 69 nM.
